Measurements as given in PMC8121815 (Nature Communications, 2021).

Test system: Hsp90/TOM70 interaction
Format: binding, human

SMILES: CC[C@H](C)[C@H](N)C(=O)N[C@H](C(=O)N[C@@H](CC(C)C)C(=O)N[C@@H](CCCNC(=N)N)C(=O)N[C@@H](CC(C)C)C(=O)NCC(=O)N[C@@H](CO)C(=O)N1CCC[C@H]1C(=O)N[C@@H](CC(C)C)C(=O)N[C@@H](CO)C(=O)N[C@@H](CC(C)C)C(=O)N[C@@H](CC(N)=O)C(=O)N[C@@H](CCSC)C(=O)N[C@@H](C)C(=O)N[C@@H](CCCNC(=N)N)C(=O)N[C@@H](CCCCN)C(=O)N[C@H](C(=O)N[C@@H](CC(C)C)C(=O)N[C@@H](CC(N)=O)C(=O)N[C@@H](CO)C(=O)N[C@@H](CC(C)C)C(=O)N[C@@H](CCC(=O)O)C(=O)N[C@@H](CC(=O)O)C(=O)N[C@@H](CCCCN)C(=O)N[C@@H](C)C(=O)N[C@@H](Cc1ccccc1)C(=O)N[C@@H](CCC(N)=O)C(=O)O)[C@@H](C)O)[C@@H](C)CC [C-peptide]
- effect on binding of EEVD motif / N-peptide to hTOM70: blocked the binding of the EEVD motif to TOM70, although to a lesser extent; also recorded: clearly able to block N-peptide binding similar to the intact orf9b, albeit to a lesser extent

Entries after “also recorded” stand apart in the source; their conditions may differ.
